Values of other authors as cited in PMC12206923.

Amino acid sequences for entries named in this document (tags omitted). Residues count along the entry.
UniProt P01589, 22-240, chain 1 of 3: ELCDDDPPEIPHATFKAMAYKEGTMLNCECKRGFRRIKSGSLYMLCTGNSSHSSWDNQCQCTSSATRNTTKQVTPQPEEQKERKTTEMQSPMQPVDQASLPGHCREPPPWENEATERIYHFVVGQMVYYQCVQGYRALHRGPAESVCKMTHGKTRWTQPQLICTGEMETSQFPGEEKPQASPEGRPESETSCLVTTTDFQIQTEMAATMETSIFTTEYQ
UniProt P60568, 21-153: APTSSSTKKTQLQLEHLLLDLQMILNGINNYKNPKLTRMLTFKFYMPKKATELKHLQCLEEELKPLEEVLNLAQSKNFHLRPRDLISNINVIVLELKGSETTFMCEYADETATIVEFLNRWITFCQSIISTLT

Target: trimeric IL-2 receptor (Homo sapiens) (UniProt P01589)

Kd: 10 pM
Substance: IL-2 (from UniProt P60568)
